Source: patent publication US11124550B2, “Proteinaceous molecules and methods of use” (priority 2015, dated 2021)

Test system: CA1 pyramidal neurons from SCN1A (R1407X) Dravet syndrome mice
Assay: Brain-slice whole-cell recordings, excitatory neurons
Format: cell-based, mouse
Details: 10 nM
Protocol: Mice (post-natal day 14-16) were anaesthetized using isoflurane and sacrificed by decapitation. Brain slices (300-μm thick) were cut using a vibratome in the sagittal plane. Slices were kept at room temperature until recording. The slices were transferred to a recording chamber constantly perfused at 34° C. with artificial cerebrospinal fluid (CSF) solution consisting of: 125 mM NaCl, 2.5 mM KCl, 25 mM NaHCO3, 1.25 mM NaH2PO4, 1 mM MgCl2, 2 mM CaCl2) and 10 mM glucose, aerated with 95% O2 and 5% CO2 (final pH of 7.4). Whole-cell patch-clamp recordings were made using a MultiClamp 700A amplifier and pClamp acquisition software (Molecular Devices) from neurons visually identified using infrared differential interference contrast imaging (BX51, Olympus). Electrodes were pulled using a Sutter P-2000 puller (Sutter Instruments) from borosilicate micropipettes (World Precision Instruments) with an initial resistance of ˜2-3 megaohms and filled with intracellular solution consisting of 125 mM KGlu, 4 mM KCl, 2 mM MgCl2, 10 mM HEPES, 10 mM EGTA, 4 mM ATP-Mg, 0.3 mM GTP-Na, and 8 mM Biocytin Hydrochloride adjusted to a final pH of 7.3 with KOH. D-Mannitol was used to adjust osmolarity to 300 mOsm. Bridge balance was applied to all recordings. Voltage recordings were filtered at 30 kHz and sampled at 100 kHz. A holding current was injected into neurons if required, setting their holding potential to approximately −75 mV. A current injection/action potential (AP) frequency relationship was established by injecting an 800 ms square pulse of progressively depolarising currents. An automated AP detection algorithm in Axograph was used to detect AP with visual confirmation. The integrated number of APs between injection current bins of the i-o relationships was calculated (Axograph X) in order to allow comparison between control and Hm1a. AP threshold voltage was defined as the voltage at which velocity reached 10 mV/ms. For the AP waveform analysis, amplitude was measured from threshold to peak, rise-time was determined as the time between 10% to 90% of the AP amplitude and AP width was measured at 50% of the peak amplitude. AP measured at ‘collapse’ were selected for each individual cell at the first current injection at which AP collapse was robust. APs at the same current injection were analyzed in the presence of Hm1a. Membrane input resistance was measured in current clamp mode by measuring the last 200 ms of the voltage trace generated by a current injection of −10 pA.
To test the impact of synthetic Hm1a (Example 1) on excitatory neurons, whole-cell recordings were made from CA1 pyramidal neurons isolated from SCN1A (R1407X) Dravet syndrome mice. The input current versus AP firing rate relationship was not altered by the application of 10 nM Hm1a (FIG. 7). Hm1a had no impact on resting potential (Table 9) or input resistance (450±70 versus 420±60 MΩ, p=0.8, n=6) of the pyramidal neurons.

CC(C)C[C@@H]1NC(=O)[C@H](Cc2ccc(O)cc2)NC(=O)[C@H](CCCNC(=N)N)NC(=O)[C@@H](NC(=O)[C@@H](N)CCC(=O)O)CSSC[C@@H]2NC(=O)[C@@H]3CSSC[C@@H](C(=O)N[C@@H](C)C(=O)N[C@@H](Cc4c[nH]c5ccccc45)C(=O)N[C@@H](CC(=O)O)C(=O)NCC(=O)N[C@H](C(=O)N[C@@H](Cc4ccccc4)C(=O)N[C@@H](CO)C(=O)O)[C@@H](C)O)NC(=O)[C@H](Cc4ccc(O)cc4)NC(=O)[C@H](CCCCN)NC(=O)[C@H](Cc4c[nH]c5ccccc45)NC(=O)[C@H](CC(=O)O)NC(=O)[C@H](CO)NC(=O)[C@H](CCCNC(=N)N)NC(=O)[C@H](CSSC[C@H](NC(=O)CNC(=O)CNC(=O)[C@H](Cc4ccccc4)NC1=O)C(=O)N[C@@H](CO)C(=O)N[C@@H](CO)C(=O)N[C@@H]([C@@H](C)O)C(=O)N[C@@H](CO)C(=O)N[C@@H](CC(=O)O)C(=O)N3)NC(=O)[C@H](CO)NC(=O)[C@H](CC(C)C)NC(=O)[C@H](Cc1c[nH]cn1)NC(=O)[C@H](CCCCN)NC2=O [Hm1a]
input current versus AP firing rate relationship: not altered | input resistance (450±70 versus 420±60, p=0.8, no impact): 420±60 MΩ | Action potential Rise at rheobase (control 0.45 ± 0.03): 0.46 ± 0.05 ms | Action potential Width at rheobase (control 2.1 ± 0.2): 2.1 ± 0.1 ms | RMP (control 75 ± 2): 73 ± 2 mV | Action potential Amp at rheobase (control 99 ± 3, n = 6): 97 ± 4 mV | Action potential Threshold at rheobase (control −48.2 ± 2.9): −43.1 ± 3.1 mV
